Experiments:
LTA4H epoxide hydrolase = LTA4H epoxide hydrolase (Homo sapiens (Human), UniProt P09960); conditions: Bhatt et al. (2017); cited from earlier work
other metalloenzymes = conditions: Bhatt et al. (2017); cited from earlier work
CYP3A4/5 = experiment: Clinical drug-drug interaction study, CYP3A4/5 induction; format: in vivo, human; conditions: steady state exposures

Amino acid sequences for entries named in this document (tags omitted). A change or cut given only in a name is not applied to a line headed by its entry.
UniProt P09960: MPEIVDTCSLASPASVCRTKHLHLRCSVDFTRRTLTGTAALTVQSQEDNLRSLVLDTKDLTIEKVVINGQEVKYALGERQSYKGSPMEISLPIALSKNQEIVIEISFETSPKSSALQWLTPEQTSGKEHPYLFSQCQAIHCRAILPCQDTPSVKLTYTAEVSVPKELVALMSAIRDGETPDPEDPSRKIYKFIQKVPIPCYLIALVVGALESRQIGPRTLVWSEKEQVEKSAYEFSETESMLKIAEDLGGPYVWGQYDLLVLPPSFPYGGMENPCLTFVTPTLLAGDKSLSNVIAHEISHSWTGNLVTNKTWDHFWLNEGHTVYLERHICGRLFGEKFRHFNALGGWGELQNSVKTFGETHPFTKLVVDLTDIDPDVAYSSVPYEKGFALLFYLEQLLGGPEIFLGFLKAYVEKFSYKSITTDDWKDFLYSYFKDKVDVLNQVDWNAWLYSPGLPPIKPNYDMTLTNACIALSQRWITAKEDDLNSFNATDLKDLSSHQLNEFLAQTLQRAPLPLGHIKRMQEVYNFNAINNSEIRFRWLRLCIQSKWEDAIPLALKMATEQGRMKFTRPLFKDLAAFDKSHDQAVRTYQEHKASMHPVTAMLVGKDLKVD

In the case of `O=C(O)c1ccc(CN2C[C@@H]3C[C@H]2CN3Cc2ccc(Oc3ccc(-c4ncco4)cc3)cc2)cc1` [Acebilustat, 4-{[(1S,4S)-5-({4-[4-oxazol-2-yl-phenoxy]phenyl}methyl)-2,5-diazabicyclo[2.2.1]heptan-2-yl]methyl}benzoic acid], the “functional selectivity, epoxide hydrolase versus aminopeptidase activity” value (LTA4H epoxide hydrolase) is given as 2 fold, the “selectivity for LTA4H versus other metalloenzymes” value (other metalloenzymes) is given as “highly selective” and the “induction of CYP3A4/5” value (CYP3A4/5) is given as “did not induce”.

Reference: patent US20240398793A1, “Methods of Treating Lymphedema” (Celltaxis, LLC, priority 2021, published 2024)
